# Measured values reported in patent US10420737B2, “Hepatotoxicity-free pharmaceutical composition containing acetaminophen drugs” (NATIONAL DEFENSE EDUCATION AND RESEARCH FOUNDATION, priority 2013, dated 2019).
# Chains of the proteins cited; added tags and fusions are not shown. Lines headed by an entry give the natural chain unless they say otherwise; changes in a name come on top.
# UniProt P05182: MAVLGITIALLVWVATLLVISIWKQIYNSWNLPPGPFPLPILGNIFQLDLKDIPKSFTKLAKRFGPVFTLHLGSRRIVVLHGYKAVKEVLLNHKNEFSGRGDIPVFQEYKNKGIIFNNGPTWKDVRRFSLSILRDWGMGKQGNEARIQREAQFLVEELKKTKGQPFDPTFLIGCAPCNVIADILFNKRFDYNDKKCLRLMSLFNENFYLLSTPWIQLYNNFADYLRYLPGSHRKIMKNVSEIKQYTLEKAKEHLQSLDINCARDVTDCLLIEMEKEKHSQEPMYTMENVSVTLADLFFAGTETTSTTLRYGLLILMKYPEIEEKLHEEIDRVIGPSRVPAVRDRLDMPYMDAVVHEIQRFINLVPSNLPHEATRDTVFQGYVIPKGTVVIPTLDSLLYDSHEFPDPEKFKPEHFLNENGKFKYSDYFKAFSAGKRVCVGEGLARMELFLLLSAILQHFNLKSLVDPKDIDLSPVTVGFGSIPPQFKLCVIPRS
# Biological target: Cytochrome P450 2E1 (CYP2E1) (Rattus norvegicus, UniProt P05182)
# Conditions: rat liver microsomes
substance,measurement,setting,value
Glycerin monostearate,CYP 2E1 inhibition ratio,test concentration 0.024%,8.3 ± 5.7%
same,CYP 2E1 inhibition ratio,test concentration 0.084% (w/v),7.4 ± 2.9%
same,CYP 2E1 inhibition ratio,test concentration 0.167% (w/v),6.9 ± 1.8%

# Where two headings read alike, the source gives them in different places.
